Drawing on BindingDB's records for doi:10.1016/s0960-894x(02)00585-1 (Corvas International, 2002), this text covers Ki for two compounds.

The target of the experiment is Prothrombin (Homo sapiens, UniProt P00734). In words: In vitro inhibitory activity against human Thrombin (FIIa) cleavage of the chromogenic substrate.

pKi: −log10 of the molar value.

`COc1cccc(S(=O)(=O)Nc2cccn(CC(=O)NCc3ccc4c(N)[nH]nc4c3)c2=O)c1` had a pKi of 5.45.

On to `Cc1cnc(NCCc2ccccc2)c(=O)n1CC(=O)NCc1ccc2cn[nH]c2c1`, for which the pKi is 5.80.

As usually defined, the pKi is −log10 of the Ki, conventionally taken in molar units.
